This note sets out measurements from patent US10307355B2, “N-aralkylcarbonyldiamine compounds and personal care compositions comprising the same” (Conopco, Inc., priority 2015, dated 2019).

By UniProt entry, the sequences of proteins in these tests, tags left out.
UniProt P20309, whole entry, looked up: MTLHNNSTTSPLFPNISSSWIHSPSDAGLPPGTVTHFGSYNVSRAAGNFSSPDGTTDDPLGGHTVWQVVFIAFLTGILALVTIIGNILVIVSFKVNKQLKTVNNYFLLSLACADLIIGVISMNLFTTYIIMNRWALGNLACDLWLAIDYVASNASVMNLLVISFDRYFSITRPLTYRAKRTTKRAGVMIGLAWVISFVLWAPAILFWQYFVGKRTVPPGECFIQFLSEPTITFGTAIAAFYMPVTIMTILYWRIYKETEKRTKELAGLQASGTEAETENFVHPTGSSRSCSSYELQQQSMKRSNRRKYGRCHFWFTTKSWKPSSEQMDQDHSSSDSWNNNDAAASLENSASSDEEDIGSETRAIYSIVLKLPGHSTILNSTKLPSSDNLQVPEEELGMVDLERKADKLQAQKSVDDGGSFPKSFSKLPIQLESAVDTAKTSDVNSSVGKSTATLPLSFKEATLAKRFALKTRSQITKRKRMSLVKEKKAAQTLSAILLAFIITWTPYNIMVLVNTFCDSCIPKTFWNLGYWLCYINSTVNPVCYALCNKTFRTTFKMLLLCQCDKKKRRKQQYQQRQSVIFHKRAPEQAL

For experiment [1], the system named is human living skin equivalents. The experiment can be described thus: Ki-67 assay using human living skin equivalents (cell proliferation). Conditions: 1 μM, dosed once per day for 4 d; vehicle 0.1% DMSO; P-value 0.005.
The target in experiment [2] is human M3 receptor (Homo sapiens, UniProt P20309). The experiment can be described thus: Muscarinic 3 receptor binding assay (3H-scopolamine displacement, CHO cell membranes). Conditions: inhibition of 3H-scopolamine binding to CHO cell suspension expressing the human M3 receptor.

Usually IC50 stands for the point on the concentration scale where inhibition reaches its midpoint. Lower therefore signals higher potency. `CN(C)CCN(C)C(=O)C(O)(c1ccccc1)C1CCCC1` (stereo not shown): in experiment [1], the “% Increase in Ki-67 stained positive cells over vehicle” value was found to be 72%. This molecule also showed an IC50 in experiment [2] of 440 nM.
With `CN(C)CCCN(C)C(=O)C(O)(c1ccccc1)C1CCCC1` (stereo not shown), the IC50 in experiment [2] stood at 1500 nM.
Turning to `CN(C)CCN(C)C(=O)C(O)(c1ccccc1)C1CCCCC1` (stereo not shown), in experiment [2], the IC50 is 650 nM. Against the preceding molecule, the IC50 is about 2.3-fold lower.
